In patent US9493474B2, “Inhibitors of the renal outer medullary potassium channel” (Merck Sharp & Dohme Corp., priority 2011, dated 2016) one finds IC50 data, which are given here for two compounds.

Chains of the proteins cited; added tags and fusions are not shown.
UniProt P48048, whole entry, species assumed: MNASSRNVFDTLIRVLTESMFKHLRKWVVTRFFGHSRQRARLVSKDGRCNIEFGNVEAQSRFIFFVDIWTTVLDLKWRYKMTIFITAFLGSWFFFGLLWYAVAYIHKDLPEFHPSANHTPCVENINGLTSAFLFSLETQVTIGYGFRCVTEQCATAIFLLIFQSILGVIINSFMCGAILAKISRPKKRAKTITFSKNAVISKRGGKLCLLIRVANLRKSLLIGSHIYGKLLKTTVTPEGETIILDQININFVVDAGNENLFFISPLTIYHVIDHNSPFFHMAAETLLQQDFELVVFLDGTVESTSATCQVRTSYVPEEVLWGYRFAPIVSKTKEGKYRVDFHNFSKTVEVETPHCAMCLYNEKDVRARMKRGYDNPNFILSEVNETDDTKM

This experiment deals with Kir1.1 (ROMK1) (Homo sapiens (Human), UniProt P48048). As to the kind of experiment: Electrophysiology Assay (whole cell voltage clamp, IonWorks Quattro). The class given is cell-based. The settings on record: Chinese hamster ovary cells stably expressing Kir1.1; block at voltage step to 0 mV, 6 minutes compound incubation; read-out: EP Assay IC50. From the text:
Several assays may be used to measure functional inhibition of the ROMK channel by compounds of the instant invention. One assay that can be used is an electrophysiology assay that measures the electrical current that is generated as potassium permeates through the channel. Another ROMK functional assay makes use of the ability of thallium to permeate through open ROMK channels and increase the fluorescence of a dye previously loaded into the cells. Under control conditions, cells loaded with dye and exposed to thallium-containing medium display a time-dependent increase in fluorescence, the rate of which depends on number of functional channels. When cells are incubated in the presence of a channel inhibitor, the increase in fluorescence is attenuated in a concentration-dependent manner, and IC50 values of inhibition by compounds can be accurately determined. This assay has been established with cell lines expressing either human, or rat ROMK channels, and operates in 384-well format. […]
Voltage protocols and current recordings were performed using the IonWorks® HT software/hardware system. […] Current amplitudes were measured using the IonWorks® software. To assess compound potency, the fractional block during the voltage step to 0 mV was calculated in Microsoft® Excel (Microsoft, Redmond, Calif.), and dose-response curves were fitted with Igor Pro 4.0 (WaveMetrics, Lake Oswego, Oreg.). […]
A general note: Patch clamp records ionic current or voltage across a cell membrane.

On to `Cc1c([C@@H](O)CN2CC3CCN(C[C@H](O)c4ccc5c(c4C)COC5=O)C3C2)ccc2c1COC2=O` (single isomer, unassigned) [Example 4A], for which the IC50 was 120 nM.

`Cc1c([C@@H](O)CN2CC3CCN(C[C@H](O)c4ccc5c(c4C)COC5=O)C3C2)ccc2c1COC2=O` (single isomer, unassigned) [Example 4B]: the IC50 amounted to 117 nM.

The term IC50 denotes the point on the concentration scale where inhibition reaches its midpoint.
